Assay results taken from PMC3456874, “Fragment Screening at Adenosine-A3 Receptors in Living Cells Using a Fluorescence-Based Binding Assay” (Chemistry & Biology, 2012).

Sequences of proteins named here, by UniProt entry; tags and fusion partners are left off.
UniProt P0DMS8, whole entry: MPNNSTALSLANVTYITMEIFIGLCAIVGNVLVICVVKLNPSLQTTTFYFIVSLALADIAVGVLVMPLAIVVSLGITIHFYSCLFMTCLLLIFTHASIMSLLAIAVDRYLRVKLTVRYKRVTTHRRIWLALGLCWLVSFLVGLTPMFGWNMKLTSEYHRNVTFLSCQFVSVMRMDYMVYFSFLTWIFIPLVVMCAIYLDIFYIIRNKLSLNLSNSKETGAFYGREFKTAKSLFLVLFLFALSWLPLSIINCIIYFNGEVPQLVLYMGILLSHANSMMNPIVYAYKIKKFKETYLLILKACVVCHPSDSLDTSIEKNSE

Target: human A3AR (Homo sapiens, UniProt P0DMS8)
Assay: High-content fluorescent ligand (CA200645) competition binding assay in live CHO CRE-SPAP cells expressing the A3AR
Conditions: for % of CA200645 binding (% DMSO control): compounds tested at 1 mM, control 1% DMSO and 25 nM CA200645, asterisk = selected for further screening; for pKi at the adenosine A3 receptor (Table S2): mean ± s.e.m from 3 separate experiments; for A3 pKi (Table S3): mean ± s.e.m

Compound: Cc1nc(-c2ccccc2)sc1CO
- % of CA200645 binding (% DMSO control): 21.34%
- pKi at the adenosine A3 receptor (Table S2): 4.47 ± 0.50

Compound: CCOC(=O)c1sc(-c2ccccc2)nc1C
- % of CA200645 binding (% DMSO control): 28.44%
- pKi at the adenosine A3 receptor (Table S2): 4.78 ± 0.34

Compound: CCCCCCNc1ccccc1-c1nc2ccccc2[nH]1
- A3 pKi (Table S3): 6.27 ± 0.05

Compound: CC(=O)c1csc(-c2ccc(OC(F)(F)F)cc2)n1
- % of CA200645 binding (% DMSO control): 27.22%
- pKi at the adenosine A3 receptor (Table S2): 4.86 ± 0.50

Compound: OCc1cccc(-c2cncnc2)c1
- % of CA200645 binding (% DMSO control): 47.06%
- pKi at the adenosine A3 receptor (Table S2): > 3

Compound: Nc1nc(-c2ccccc2)ns1
- % of CA200645 binding (% DMSO control): 24.90%
- pKi at the adenosine A3 receptor (Table S2): 5.02 ± 0.28

Compound: O=C(Nc1ccccc1-c1nc2ccccc2[nH]1)c1ccccc1
- A3 pKi (Table S3): 6.27 ± 0.17

Compound: Cc1nc(-c2ccccc2)ncc1CO
- % of CA200645 binding (% DMSO control): 21.54%
- pKi at the adenosine A3 receptor (Table S2): 5.47 ± 0.09

Compound: CCOC(=O)c1sc(C)nc1-c1ccccc1
- % of CA200645 binding (% DMSO control): 38.60%
- pKi at the adenosine A3 receptor (Table S2): > 3

Compound: CNCc1ccc(-c2nccs2)cc1
- % of CA200645 binding (% DMSO control): 32.45%
- pKi at the adenosine A3 receptor (Table S2): 4.61 ± 0.18
